Assay results: ChEMBL document CHEMBL1150976, “The selectivity of protein kinase inhibitors: a further update” (Biochem J, 2007)

Protein sequences, listed by entry. Tags and fused reporters are not part of them.
UniProt P15056, whole entry: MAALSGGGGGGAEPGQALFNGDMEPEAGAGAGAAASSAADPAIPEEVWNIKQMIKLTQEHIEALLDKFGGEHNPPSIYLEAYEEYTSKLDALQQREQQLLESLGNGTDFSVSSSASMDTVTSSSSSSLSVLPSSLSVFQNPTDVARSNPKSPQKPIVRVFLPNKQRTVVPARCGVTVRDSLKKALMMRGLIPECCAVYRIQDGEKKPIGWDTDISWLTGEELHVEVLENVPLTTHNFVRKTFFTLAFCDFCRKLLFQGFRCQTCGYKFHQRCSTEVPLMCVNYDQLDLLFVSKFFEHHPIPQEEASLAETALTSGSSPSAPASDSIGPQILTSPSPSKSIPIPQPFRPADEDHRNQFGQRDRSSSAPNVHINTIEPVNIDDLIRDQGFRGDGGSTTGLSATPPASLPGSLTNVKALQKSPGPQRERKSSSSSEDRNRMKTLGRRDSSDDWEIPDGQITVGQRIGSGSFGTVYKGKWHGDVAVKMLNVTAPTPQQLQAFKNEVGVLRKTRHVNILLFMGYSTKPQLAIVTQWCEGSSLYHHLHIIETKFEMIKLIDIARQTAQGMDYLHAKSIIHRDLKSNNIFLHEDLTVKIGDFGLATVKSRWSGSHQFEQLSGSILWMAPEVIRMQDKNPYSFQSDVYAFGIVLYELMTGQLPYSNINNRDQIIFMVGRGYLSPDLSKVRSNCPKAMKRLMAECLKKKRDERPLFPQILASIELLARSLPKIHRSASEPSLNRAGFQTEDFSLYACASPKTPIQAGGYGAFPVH

Target: Serine/threonine-protein kinase B-raf (Homo sapiens, UniProt P15056)
Assay: Percentage B-Raf activity remaining in the presence of 1uM inhibitor
Conditions: filed as antagonist

## O=C1Nc2ccc(I)cc2C1=Cc1cc(Br)c(O)c(Br)c1 [GW305074X]
  Activity: 16%
